# Laboratory results taken from ChEMBL document CHEMBL5113527, “First-in-Class Hydrazide-Based HDAC6 Selective Inhibitor with Potent Oral Anti-Inflammatory Activity by Attenuating NLRP3 Inflammasome Activation” (J Med Chem, 2022).
# Species: Homo sapiens
# Assay: Selectivity index, ratio of IC50 for recombinant HDAC1(unknown origin) to IC50 for full length recombinant human HDAC6
smiles,measurement,value
CCNNC(=O)c1ccc(CN2c3ccccc3C=Cc3ccncc32)cc1,Ratio IC50,80
